This passage reports activity results from EP4534528A1, “NOVEL SULFANONE DERIVATIVE OR PHARMACEUTICALLY ACCEPTABLE SALT THEREOF, AND USE THEREOF” (Korea Institute of Science and Technology, priority 2022, dated 2023).

A value given as a limit tells only on which side of the number the result lay.

This assay relates to NO (nitric oxide). Briefly: NO (nitric oxide) inhibitory activity in LPS-treated BV-2 microglial cells. In kind it is cell-based. Conditions: Mus musculus, BV-2, 24 h; for activity at 10 µM: read-out: Amount of NO (% of control) 10 µM.

For `N=S(=O)(/C=C/c1c(Cl)cccc1Cl)c1ccccn1` (stereo not drawn) [Compound 1-19, (E)-(2,6-dichlorostyryl)(imino)(pyridin-2-yl)-λ^6-sulfanone], the activity at 10 µM is less than 3%. As to `N=S(=O)(/C=C/c1ccccc1Cl)c1ccccn1` (stereo not drawn) [Compound 1-15, (E)-(2-chlorostyryl)(imino)(pyridin-2-yl)-λ^6-sulfanone], the activity at 10 µM is less than 3%.

For the molecule `N=S(=O)(/C=C/c1ncccc1Cl)c1ccccc1F` (stereo not drawn) [Compound 1-6, (E)-(2-(3-chloropyridin-2-yl)vinyl)(2-fluorophenyl)(imino)-λ^6-sulfanone], the activity at 10 µM is less than 3%. Also, the activity at 0.1 µM (read-out: Amount of NO (% of control) 0.1 µM) is 82.9%. Further, where the note is “read-out: Amount of NO (% of control) 1 µM”, the activity at 1 µM came to 43.7%.

As for `COc1cccc(S(=N)(=O)/C=C/c2ncccc2Cl)c1` (stereo not drawn) [Compound 1-9, (E)-(2-(3-chloropyridin-2-yl)vinyl)(imino)(3-methoxyphenyl)-λ^6-sulfanone], the activity at 10 µM is less than 3%.
